Experimental data from publication PMC11653428, “5‐methyl‐2‐carboxamidepyrrole‐based novel dual mPGES‐1/sEH inhibitors as promising anticancer candidates” (Archiv Der Pharmazie, 2024).

Chains of the proteins cited; added tags and fusions are not shown.
UniProt P34913, whole entry: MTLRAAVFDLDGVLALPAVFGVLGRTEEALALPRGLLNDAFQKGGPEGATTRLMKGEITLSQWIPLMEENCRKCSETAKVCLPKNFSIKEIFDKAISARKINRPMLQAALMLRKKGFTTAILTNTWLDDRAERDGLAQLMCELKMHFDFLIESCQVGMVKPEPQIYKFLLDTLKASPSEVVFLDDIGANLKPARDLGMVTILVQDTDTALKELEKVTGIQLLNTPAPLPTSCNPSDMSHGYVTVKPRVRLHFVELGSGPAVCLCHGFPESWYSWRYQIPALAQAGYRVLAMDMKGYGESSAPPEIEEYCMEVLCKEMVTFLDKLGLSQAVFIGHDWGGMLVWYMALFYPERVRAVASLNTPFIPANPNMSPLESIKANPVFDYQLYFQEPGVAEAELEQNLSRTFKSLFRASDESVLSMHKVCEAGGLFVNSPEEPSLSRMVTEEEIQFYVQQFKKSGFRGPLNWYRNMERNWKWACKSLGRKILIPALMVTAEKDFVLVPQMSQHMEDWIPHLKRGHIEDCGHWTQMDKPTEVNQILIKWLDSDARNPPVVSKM

Biological target: T1, human recombinant sEH (Homo sapiens, UniProt P34913)
T1 construct: purchased 10011671
Experiment: Cell-free sEH activity assay (PHOME fluorescence, inhibitor screening kit)
Format: biochemical
Conditions: 5 µM

Substance: AUDA [reference compound]
- Residual activity of sEH, mean ± SD (%): 6.1 ± 0.8%
